Experiments:
in vivo = conditions: both, Kunming (KM), mouse, po

Question: What does the source list for `Cc1nc2n(c(=O)c1CCN1CCC(c3noc4cc(F)ccc34)CC1)CCCC2` [risperidone, reference compound]?
Answer: ED50 (in vivo): 0.3 mg/kg; EPS at effective dosage (in words) (KM mice (catalepsy)): did not cause EPS

Source: US8993575B2, “[1,3,4] oxadiazole derivative and application thereof” (Huazhong University of Science & Technology, priority 2011, dated 2015)
